Earlier results, collected in patent US7928189B2, “PCSK9 polypeptide fragment” (Ottawa Health Research Institute, priority 2008, dated 2011).

Target: LDLR EGF-A domain (Homo sapiens, UniProt P01130)
Conditions: EGF-A domain of LDLR; cited from earlier work

Q: Which “binding to LDLR at the cell surface relative to wild type PCSK9” value does the source give for “D374Y: 'gain of function' variation in the catalytic domain of PCSK9” here?
A: 25 ×
